Here are results for one substance from patent US20250002529A1, “NOVEL […] COMPOUNDS, PREPARATION METHODS, COMPOSITIONS AND APPLICATIONS” (Guangzhou Anobri Pharmaceutical Co. Ltd., priority 2021, published 2025).

On the set-up of this data set: species or system Male Wistar-Hannover rats. To be noted: rat, in vivo, 10 mg/kg.

Usually Cmax stands for the peak of the concentration-time curve. Broadly, the Tmax is the time at which the peak concentration occurs. On to PF-07321332 [reference compound], for which the “AUC0~∞” value is 1982 ng·h/mL, the highest concentration (Cmax) was 1445 ng/mL, the T1/2 worked out at 2.9 h and the Tmax is 2 h.
